System: MHV-nLuc virus
Details: DBT cells

Question: For `CN(C)CC#Cc1ccc2[nH]c3c(c2c1)-c1nc(N)ncc1CCC3` [compound 17, 11-(3-(Dimethylamino)prop-1-yn-1-yl)-5,6,7,8-tetrahydropyrimido[4′,5′:3,4]cyclohepta[1,2-b]indol-2-amine], which “inhibition of viral replication (MHV-nLuc), in words” value is on record?
Answer: inhibited viral replication

Reference: PMC9574855 (Journal of Medicinal Chemistry, 2022)
